Target: human BACE1 (Homo sapiens, UniProt P56817)
Test: Fluorescent kinetic assay, BACE-1 (Example 114)
Type: biochemical
Conditions: read-out: BACE-1 (IC50 μM); 10 nM human BACE1, 25 μM substrate WABC-6, 50 mM Na-Acetate pH 4.5, room temperature

By UniProt entry, the sequences of proteins in these tests, tags left out. Residues count along the entry.
UniProt P56817, 46-501 limits assumed: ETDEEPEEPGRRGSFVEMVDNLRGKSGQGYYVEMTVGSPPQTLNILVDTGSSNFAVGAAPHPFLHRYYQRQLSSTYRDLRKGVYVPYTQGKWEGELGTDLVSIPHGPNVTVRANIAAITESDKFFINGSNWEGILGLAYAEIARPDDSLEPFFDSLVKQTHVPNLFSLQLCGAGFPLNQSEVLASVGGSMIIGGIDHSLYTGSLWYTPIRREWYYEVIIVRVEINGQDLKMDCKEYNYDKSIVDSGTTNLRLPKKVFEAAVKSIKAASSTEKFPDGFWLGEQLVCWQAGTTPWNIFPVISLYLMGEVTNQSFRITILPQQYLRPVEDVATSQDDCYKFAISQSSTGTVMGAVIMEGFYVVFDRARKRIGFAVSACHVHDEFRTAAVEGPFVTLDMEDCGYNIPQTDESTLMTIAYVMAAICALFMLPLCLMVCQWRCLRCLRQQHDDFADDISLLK

IC50	Structure (SMILES)
0.11 to 1 µM	CN1C(=O)C(c2ccncc2)(c2cccc(-c3ccccc3)c2)N=C1N (stereo not shown)
0.01 to 0.1 µM	CCc1cc(C2(c3ccc(F)c(-c4cnccc4F)c3)N=C(N)N(C)C2=O)cc(CC)n1 (stereo not shown)
0.11 to 1 µM	CC(C)c1cc(C2(c3cccc(-c4cc(F)ccc4F)c3)N=C(N)N(C)C2=O)ccn1 (stereo not shown)
> 1 µM	COc1cccc(C2(c3ccncc3)N=C(N)N(C)C2=O)c1 (stereo not shown)
> 1 µM	CN1C(=O)C(c2ccncc2)(c2cccc(Br)c2)N=C1N (stereo not shown)
0.11 to 1 µM	COc1ncc(C2(c3cccc(-c4cncnc4)c3)N=C(N)N(C)C2=O)cn1 (stereo not shown)
0.01 to 0.1 µM	COc1ncc(C2(c3cccc(-c4cccnc4F)c3)N=C(N)N(C)C2=O)cn1 (stereo not shown)

Reference: patent publication US7452885B2, “Amino-5-(6-membered)heteroarylimidazolone compounds and the use thereof for β-secretase modulation” (Wyeth, priority 2005, dated 2008)
